From ChEMBL document CHEMBL4840339, “A naphthyridine-indole ligand for selective stabilization of G-quadruplexes and conformational conversion of hybrid topology” (Bioorg Med Chem, 2021) come the findings set out here.

Assay [1] relates to Quadruplex DNA.
In assay [2] the test system is Quadruplex DNA. The source holds these as a separate data set.

`CN(C)CCOc1ccc2c(ccn2-c2ccc3ccc(-n4ccc5cc(OCCN(C)C)ccc54)nc3n2)c1`: the figures for the Ka with Quadruplex DNA [1], in the assay with Quadruplex DNA [2] and in the assay on dsDNA were 0.24 10^6/M, 0.36 10^6/M and 0.12 10^6/M, respectively.
